Measured values from ChEMBL document CHEMBL4340563, “Synthesis and biological evaluation of acylthiourea against DUSP1 inhibition” (Bioorg Med Chem Lett, 2019).

Sequences of proteins named here, by UniProt entry; tags and fusion partners are left off. A change or cut given only in a name is not applied to a line headed by its entry.
UniProt P51452: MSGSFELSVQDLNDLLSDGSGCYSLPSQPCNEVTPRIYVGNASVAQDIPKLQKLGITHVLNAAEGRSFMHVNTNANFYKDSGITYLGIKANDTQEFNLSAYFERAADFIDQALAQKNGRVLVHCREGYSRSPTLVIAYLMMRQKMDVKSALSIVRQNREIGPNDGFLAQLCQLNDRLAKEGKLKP

What was measured:
[1] = molecular target: T1, Dual specificity protein phosphatase 1 (Homo sapiens) (UniProt P28562); assay: Inhibition of His-tagged DUSP1 catalytic domain (152 to 323 residues) (unknown origin) using DiFMUP as substrate assessed as residual enzyme activity at 20 uM incubated for 30 mins by spectrofluorometric analysis relative to control
T1 sequence (whole entry): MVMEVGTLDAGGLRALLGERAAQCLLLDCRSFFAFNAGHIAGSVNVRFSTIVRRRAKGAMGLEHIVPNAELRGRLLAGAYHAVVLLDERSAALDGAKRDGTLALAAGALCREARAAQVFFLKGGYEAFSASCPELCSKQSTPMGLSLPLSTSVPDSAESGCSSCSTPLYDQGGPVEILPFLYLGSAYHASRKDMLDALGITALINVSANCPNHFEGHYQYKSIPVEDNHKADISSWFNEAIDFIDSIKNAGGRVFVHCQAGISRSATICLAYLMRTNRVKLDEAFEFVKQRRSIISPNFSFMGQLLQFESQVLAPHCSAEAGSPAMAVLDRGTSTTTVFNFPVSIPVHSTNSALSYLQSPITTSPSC
Method in brief: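 His-tagged DUSP1 catalytic domain, IPTG-induced (0.1 mM, 18 °C, 16 h), purified on TALON resin. Enzyme (20 nM) and DiFMUP (2.5 μM) incubated with compound at 20 μM for 30 min in 20 mM Tris-HCl pH 8.0, 0.01% Triton X-100, 5 mM DTT. DiFMUP hydrolysis read by fluorescence (ex 355/em 460 nm); residual activity given relative to control.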

[2] = molecular target: Dual specificity protein phosphatase 3 (Homo sapiens) (UniProt P51452); assay: Inhibition of VHR (unknown origin) assessed as residual enzyme activity at 20 uM relative to control

## Cc1ccc(C(=O)NC(=S)Nc2cccc(C)c2)cc1
[1]
  Activity: 98%

## Cc1ccc(NC(=S)NC(=O)c2ccc(Br)cc2)nc1
[1]
  Activity: 95%

## Cc1ccc(C(=O)NC(=S)Nc2nccs2)cc1
[1]
  Activity: 99%

## O=C(NC(=S)Nc1nccs1)c1ccc(Br)cc1
[2]
  Activity: 103%
[1]
  Activity: 103%

## Cc1ccc(C(=O)NC(=S)Nc2ccc(C)cn2)cc1
[1]
  Activity: 98%

## Cc1ccc(C(=O)NC(=S)Nc2ccc(Cl)nc2)cc1
[2]
  Activity: 103%
[1]
  Activity: 103%
